Columns and labels:
[1] = GHB blood-brain partitioning at steady state; details: GHB 400 mg/kg i.v. bolus + 208 mg/kg/h infusion alone; steady state 4 h
[2] = set-up: method as in PMID 12667908; details: GHB 400 mg/kg i.v. alone; cited from earlier work

O=C(O)CCCO [GHB, γ-hydroxybutyric acid]
Cplasma GHB [1]: 0.89 ± 0.05 mg/mL
GHB Brain/Plasma Ratio [1]: 0.24 ± 0.02
GHB Brain/Plasma Ratio at RRR [2]: 0.19 ± 0.02

From paper PMC8157280, “Toxicokinetic/Toxicodynamic Interaction Studies in Rats between the Drugs of Abuse γ-Hydroxybutyric Acid and Ketamine and Treatment Strategies for Overdose” (Pharmaceutics, 2021)
